Laboratory results taken from publication PMC4585971, “Functional Analyses of the Toxoplasma gondii DNA Gyrase Holoenzyme: A Janus Topoisomerase with Supercoiling and Decatenation Abilities” (Scientific Reports, 2015).

Molecular target: T1, TgGyrB (TgGyr holoenzyme) (Toxoplasma gondii, UniProt A0A7J6KFP0)
T1 construct: gene TGRH88_002560
Test: biochemical

CO[C@@H]1[C@@H](OC(N)=O)[C@@H](O)[C@H](Oc2ccc3c(O)c(NC(=O)c4ccc(O)c(CC=C(C)C)c4)c(=O)oc3c2C)OC1(C)C [novobiocin]
IC50: ~300 nM
